According to US20130137855A1 (CSL, published 2013):

Target: T1, Soluble human IL-3Rα (human, UniProt P26951 20-305, limits assumed)
T1 construct: The assay used 'soluble human IL-3Rα'; also called IL-3Rα chain; interleukin 3 receptor alpha chain
T1 sequence: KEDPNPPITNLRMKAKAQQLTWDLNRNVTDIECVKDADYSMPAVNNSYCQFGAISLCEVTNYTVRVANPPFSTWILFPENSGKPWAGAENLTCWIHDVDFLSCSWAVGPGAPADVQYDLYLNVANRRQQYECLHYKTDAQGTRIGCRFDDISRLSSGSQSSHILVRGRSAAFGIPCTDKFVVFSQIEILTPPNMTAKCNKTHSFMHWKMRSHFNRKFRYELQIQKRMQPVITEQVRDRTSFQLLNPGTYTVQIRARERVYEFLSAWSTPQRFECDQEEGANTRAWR
Experiment: SPR (Biacore), mAb captured by anti-human Fc antibody, soluble human IL-3Rα injected, 25 °C
Experimental: To analyze full-length antibodies, surface plasmon resonance (Biacore) assays were performed in a capture format where a chemically immobilized anti human or anti mouse Fc specific antibody (Anti human Goat anti Human IgG (gamma) mouse adsorbed (Invitrogen, Cat No. H10500) or anti mouse Fc specific antibody (Jackson Immuno Research Labs inc. Cat No. 515-005-071) were chemically immobilized on a CM-5 sensor surface using standard amine coupling chemistry) and used to capture the mAb from solution. Soluble human IL-3Rα was then injected over captured antibody at various concentrations. Responses were subtracted from those from a reference flow cell in which antibody was not captured, but otherwise treated identically. The reference subtracted responses were then subtracted from the responses from a blank injection.
The final corrected responses were fitted using non-linear regression to a model describing 1:1 kinetics, including a term for mass transport limitation. The Rmax value was fitted locally, to account for slight deviations in the level of antibody captured. Association rate (ka), dissociation rate (kd) and equilibrium dissociation constant (KD) were determined.
Soluble IL-3Rα was injected at 0, 0.62, 1.25, 2.5, 5, 10, 20 and 40 nM, with 2.5 and 5 nM in duplicate

- Kd: ~780 pM
B1: CSL362 (IgG1) (antibody, V domains shown)
VH: EVQLVQSGAEVKKPGESLKISCKGSGYSFTDYYMKWARQMPGKGLEWMGDIIPSNGATFYNQKFKGQVTISADKSISTTYLQWSSLKASDTAMYYCARSHLLRASWFAYWGQGTMVTVSS
VL: DIVMTQSPDSLAVSLGERATINCESSQSLLNSGNQKNYLTWYQQKPGQPPKPLIYWASTRESGVPDRFSGSGSGTDFTLTISSLQAEDVAVYYCQNDYSYPYTFGQGTKLEIKR
notes: Human IgG1 format
